Reference: patent US20180273507A1, “CRYSTAL FORMS OF A M1 RECEPTOR POSITIVE ALLOSTERIC MODULATOR” (Merck Sharp & Dohme Corp., priority 2015, published 2018)

Assay: Hydrogen peroxide stress (2-electron oxidation) forced degradation, HPLC monitored
Details: 3% hydrogen peroxide in 50:50 methanol:water, up to 24 hours, ambient and 5° C. temperatures

Cc1ccc(Cc2cc3c(=O)n([C@H]4CCCC[C@@H]4O)cnc3c3ccccc23)cn1.O=C(O)/C=C/C(=O)O [3-[(1S,2S)-2-Hydroxycyclohexyl]-6-[(6-methyl-3-pyridinyl)methyl]benzo-[h]quinazolin-4(3H)-one (2E)-2-butenedioate]
degradation in the presence of 3% hydrogen peroxide: less than 0.1%
